The target of this experiment is Matrix metalloproteinase-9 (Homo sapiens, UniProt P14780). The experiment in a line: Inhibition of human recombinant matrix metalloprotease 9.

By UniProt entry, the sequences of proteins in these tests, tags left out. Where a name states a change or a piece, a line headed by the entry shows the natural chain unless it says otherwise.
UniProt P14780: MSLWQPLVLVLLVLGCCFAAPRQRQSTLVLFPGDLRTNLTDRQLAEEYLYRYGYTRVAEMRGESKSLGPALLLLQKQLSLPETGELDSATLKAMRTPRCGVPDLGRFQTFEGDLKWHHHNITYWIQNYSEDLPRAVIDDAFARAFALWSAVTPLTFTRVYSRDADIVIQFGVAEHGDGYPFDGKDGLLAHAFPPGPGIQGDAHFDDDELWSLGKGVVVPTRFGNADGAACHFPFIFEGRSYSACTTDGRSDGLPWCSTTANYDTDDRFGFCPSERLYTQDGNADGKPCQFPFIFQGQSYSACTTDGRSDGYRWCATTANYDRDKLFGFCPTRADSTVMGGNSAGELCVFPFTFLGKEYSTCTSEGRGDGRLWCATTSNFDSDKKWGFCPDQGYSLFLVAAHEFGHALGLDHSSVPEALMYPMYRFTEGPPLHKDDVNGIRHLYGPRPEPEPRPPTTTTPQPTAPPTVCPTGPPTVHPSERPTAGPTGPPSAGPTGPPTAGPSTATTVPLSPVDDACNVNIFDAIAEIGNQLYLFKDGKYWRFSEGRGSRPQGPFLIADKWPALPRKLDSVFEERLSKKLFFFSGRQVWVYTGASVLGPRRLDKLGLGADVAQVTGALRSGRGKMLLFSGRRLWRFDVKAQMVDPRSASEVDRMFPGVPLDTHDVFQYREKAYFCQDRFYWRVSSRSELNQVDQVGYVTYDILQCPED

As to `COc1ccc(S(=O)(=O)N2C[C@@H](O)[C@@H](O)[C@H](O)[C@@H]2C(=O)NO)cc1`, the Ki was found to be 2 nM.
